In patent US20230348453A1, “HALOGENATED-HETEROARYL AND OTHER HETEROCYCLIC KINASE INHIBITORS, AND USES THEREOF” (iOmx Therapeutics AG, priority 2020, published 2023):
Several values for one entry are separate records, joined by “and”; a condition that tells them apart may be missing. Equal entries are not always repeated. Where two headings read alike, the source gives them in different places.

Amino acid sequences for entries named in this document (tags omitted). Residues count along the entry.
UniProt P29320, 21-983 limits assumed: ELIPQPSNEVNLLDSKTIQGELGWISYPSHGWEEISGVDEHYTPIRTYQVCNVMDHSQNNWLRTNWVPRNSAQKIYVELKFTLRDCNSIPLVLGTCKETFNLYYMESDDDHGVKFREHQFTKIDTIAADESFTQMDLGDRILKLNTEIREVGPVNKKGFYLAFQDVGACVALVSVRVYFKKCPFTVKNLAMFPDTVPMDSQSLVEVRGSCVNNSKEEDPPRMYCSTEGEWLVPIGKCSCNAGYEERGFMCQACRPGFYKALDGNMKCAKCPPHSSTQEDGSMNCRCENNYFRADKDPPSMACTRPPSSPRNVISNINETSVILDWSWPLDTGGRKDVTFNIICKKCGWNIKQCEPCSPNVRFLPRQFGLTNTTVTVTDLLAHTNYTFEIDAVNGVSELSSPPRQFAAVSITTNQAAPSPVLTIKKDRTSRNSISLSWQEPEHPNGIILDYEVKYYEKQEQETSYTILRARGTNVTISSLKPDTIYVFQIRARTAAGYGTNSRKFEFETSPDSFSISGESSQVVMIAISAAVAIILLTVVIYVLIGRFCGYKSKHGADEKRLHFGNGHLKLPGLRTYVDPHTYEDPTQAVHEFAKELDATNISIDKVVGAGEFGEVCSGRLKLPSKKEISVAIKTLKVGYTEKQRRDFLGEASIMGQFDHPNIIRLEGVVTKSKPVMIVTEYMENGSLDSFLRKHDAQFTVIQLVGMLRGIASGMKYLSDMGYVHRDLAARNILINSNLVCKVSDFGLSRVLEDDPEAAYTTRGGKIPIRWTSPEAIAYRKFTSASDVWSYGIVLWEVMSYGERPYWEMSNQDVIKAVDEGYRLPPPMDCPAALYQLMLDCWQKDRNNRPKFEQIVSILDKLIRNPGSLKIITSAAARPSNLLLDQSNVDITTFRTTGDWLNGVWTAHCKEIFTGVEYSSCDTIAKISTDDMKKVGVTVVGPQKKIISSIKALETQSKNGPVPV
UniProt Q15375, 28-998 limits assumed: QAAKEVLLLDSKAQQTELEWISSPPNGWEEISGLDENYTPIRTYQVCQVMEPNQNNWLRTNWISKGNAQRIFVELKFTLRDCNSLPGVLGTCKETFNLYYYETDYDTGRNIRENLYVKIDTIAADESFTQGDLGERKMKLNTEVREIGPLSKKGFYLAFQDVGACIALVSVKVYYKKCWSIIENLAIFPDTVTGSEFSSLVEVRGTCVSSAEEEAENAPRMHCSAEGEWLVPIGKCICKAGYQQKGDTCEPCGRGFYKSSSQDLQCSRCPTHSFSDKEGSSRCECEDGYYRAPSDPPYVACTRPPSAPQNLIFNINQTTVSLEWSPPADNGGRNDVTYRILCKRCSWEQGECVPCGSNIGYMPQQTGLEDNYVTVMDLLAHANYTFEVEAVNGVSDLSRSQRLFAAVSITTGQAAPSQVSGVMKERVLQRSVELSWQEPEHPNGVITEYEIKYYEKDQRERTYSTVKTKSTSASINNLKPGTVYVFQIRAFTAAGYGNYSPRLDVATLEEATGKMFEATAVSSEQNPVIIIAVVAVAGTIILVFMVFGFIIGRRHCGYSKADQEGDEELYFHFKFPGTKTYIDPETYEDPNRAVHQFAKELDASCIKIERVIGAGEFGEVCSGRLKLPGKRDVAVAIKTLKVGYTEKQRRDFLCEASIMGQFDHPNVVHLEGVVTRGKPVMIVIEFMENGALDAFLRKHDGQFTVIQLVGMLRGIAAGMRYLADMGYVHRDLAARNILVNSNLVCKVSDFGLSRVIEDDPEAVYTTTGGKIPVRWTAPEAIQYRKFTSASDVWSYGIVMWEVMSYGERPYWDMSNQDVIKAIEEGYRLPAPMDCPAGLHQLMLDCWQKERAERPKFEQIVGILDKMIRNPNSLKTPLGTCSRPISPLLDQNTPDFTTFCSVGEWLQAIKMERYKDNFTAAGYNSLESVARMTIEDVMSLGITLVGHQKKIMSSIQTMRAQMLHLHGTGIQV
UniProt P54762, 18-984 limits assumed: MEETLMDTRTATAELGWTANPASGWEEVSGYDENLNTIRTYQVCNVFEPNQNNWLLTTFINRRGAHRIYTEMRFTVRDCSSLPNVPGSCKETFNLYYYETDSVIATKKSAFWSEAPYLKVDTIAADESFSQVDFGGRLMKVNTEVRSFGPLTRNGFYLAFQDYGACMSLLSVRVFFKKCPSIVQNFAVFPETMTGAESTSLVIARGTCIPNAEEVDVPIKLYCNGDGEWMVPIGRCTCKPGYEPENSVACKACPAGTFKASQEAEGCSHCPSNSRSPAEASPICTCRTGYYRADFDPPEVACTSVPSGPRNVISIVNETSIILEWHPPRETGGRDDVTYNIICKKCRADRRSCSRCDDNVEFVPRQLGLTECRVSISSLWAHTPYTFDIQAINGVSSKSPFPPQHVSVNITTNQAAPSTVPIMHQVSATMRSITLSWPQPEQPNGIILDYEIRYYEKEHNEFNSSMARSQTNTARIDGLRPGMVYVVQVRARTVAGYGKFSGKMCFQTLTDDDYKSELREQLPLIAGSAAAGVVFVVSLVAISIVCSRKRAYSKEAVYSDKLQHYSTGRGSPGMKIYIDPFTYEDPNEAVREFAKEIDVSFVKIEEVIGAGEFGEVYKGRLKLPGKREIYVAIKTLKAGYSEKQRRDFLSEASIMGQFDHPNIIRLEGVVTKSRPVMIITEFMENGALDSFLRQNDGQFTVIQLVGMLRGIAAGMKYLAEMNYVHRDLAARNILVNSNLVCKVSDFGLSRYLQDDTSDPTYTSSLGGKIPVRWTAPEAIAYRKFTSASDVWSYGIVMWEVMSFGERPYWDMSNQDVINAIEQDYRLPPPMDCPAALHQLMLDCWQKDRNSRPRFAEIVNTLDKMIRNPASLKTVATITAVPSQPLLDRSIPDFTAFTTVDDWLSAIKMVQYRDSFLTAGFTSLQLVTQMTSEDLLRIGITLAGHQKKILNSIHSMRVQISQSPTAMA
UniProt P07949, 29-1114 limits assumed: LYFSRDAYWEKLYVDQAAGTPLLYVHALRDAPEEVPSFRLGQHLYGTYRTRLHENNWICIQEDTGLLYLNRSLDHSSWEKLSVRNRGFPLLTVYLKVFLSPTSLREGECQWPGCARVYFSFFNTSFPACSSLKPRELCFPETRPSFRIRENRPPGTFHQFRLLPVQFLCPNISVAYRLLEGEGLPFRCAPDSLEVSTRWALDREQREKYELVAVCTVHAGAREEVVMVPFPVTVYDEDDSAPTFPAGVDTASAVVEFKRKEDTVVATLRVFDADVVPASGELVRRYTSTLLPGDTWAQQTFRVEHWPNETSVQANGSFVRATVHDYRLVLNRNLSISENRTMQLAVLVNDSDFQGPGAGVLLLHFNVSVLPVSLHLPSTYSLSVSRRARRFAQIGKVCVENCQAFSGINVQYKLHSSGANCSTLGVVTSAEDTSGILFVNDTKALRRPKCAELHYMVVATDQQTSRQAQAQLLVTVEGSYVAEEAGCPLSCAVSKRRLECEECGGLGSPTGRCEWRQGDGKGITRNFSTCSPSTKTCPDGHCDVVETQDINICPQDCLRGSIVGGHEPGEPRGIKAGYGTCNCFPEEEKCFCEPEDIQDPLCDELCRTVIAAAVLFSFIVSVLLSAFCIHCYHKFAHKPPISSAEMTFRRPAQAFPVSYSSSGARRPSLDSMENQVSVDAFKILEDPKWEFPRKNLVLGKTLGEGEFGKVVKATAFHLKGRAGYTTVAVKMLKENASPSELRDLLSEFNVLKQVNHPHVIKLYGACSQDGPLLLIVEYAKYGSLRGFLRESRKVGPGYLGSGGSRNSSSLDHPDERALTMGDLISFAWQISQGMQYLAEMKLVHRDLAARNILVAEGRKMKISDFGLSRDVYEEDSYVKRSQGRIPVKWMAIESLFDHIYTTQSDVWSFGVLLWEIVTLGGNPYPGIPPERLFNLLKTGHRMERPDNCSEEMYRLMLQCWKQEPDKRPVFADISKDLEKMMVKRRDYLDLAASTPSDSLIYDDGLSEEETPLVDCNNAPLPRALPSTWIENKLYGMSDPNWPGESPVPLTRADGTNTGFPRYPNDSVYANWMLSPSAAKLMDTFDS
UniProt P10721, 26-976 limits assumed: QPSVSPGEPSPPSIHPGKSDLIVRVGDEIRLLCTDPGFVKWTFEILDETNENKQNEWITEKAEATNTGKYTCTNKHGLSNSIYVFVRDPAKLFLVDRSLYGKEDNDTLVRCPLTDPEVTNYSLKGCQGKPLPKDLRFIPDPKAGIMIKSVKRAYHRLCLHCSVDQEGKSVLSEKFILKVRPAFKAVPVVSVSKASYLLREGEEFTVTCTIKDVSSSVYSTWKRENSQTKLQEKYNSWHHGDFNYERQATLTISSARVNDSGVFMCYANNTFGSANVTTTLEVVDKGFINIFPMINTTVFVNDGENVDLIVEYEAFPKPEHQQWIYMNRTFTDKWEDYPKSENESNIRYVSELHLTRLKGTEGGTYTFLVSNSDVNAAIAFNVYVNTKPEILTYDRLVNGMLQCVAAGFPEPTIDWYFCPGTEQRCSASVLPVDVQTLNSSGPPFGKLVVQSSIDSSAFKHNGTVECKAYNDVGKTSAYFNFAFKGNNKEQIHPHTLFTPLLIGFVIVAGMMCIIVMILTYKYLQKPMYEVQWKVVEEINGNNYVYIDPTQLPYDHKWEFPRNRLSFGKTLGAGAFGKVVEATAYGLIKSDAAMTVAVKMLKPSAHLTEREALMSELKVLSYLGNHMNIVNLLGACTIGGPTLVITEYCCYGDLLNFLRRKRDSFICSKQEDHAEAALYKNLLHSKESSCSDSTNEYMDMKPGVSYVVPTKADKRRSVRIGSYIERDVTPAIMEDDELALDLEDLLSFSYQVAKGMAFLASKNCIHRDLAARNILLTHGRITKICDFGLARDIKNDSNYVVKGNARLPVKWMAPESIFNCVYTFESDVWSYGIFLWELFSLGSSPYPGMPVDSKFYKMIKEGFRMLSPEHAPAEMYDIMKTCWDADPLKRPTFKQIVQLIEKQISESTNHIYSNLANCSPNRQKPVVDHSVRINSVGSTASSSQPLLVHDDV
UniProt P36888, 27-993 limits assumed: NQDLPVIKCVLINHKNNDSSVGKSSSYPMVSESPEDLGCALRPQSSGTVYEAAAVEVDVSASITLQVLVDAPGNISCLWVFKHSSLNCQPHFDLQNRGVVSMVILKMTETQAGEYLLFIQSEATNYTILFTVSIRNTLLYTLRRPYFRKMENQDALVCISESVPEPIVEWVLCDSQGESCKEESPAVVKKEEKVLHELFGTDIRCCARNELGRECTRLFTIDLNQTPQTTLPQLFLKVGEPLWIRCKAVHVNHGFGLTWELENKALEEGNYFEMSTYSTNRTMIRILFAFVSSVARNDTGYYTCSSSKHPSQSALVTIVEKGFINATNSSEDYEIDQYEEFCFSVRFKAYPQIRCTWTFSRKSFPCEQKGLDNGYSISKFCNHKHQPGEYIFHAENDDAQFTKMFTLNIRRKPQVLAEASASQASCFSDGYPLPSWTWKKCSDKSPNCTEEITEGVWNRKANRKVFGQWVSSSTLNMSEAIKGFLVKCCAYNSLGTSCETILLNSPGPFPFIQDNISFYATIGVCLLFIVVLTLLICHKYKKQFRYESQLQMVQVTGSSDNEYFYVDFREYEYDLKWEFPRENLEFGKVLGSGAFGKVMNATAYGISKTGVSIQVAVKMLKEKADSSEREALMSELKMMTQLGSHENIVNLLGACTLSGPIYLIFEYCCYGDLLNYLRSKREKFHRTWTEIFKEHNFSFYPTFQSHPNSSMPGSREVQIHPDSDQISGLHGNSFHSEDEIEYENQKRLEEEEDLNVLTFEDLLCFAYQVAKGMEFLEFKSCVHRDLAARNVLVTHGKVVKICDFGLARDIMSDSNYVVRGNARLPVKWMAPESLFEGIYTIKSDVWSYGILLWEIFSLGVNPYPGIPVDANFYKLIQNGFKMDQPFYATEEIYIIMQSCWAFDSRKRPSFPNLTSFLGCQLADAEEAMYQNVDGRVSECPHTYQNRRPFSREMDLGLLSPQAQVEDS

Assays:
[1] = cited from earlier work
[2] = Human plasma-protein binding
NIK = assay type: biochemical
[3] = tested on: MC38 colorectal carcinoma tumours; test: MC38 syngeneic mouse tumour model (Example 8.1); conditions: comparative study, 30 mg/kg QD
EPH-A3 = EPH-A3 (Homo sapiens (Human), UniProt P29320); test: biochemical; conditions: read-out: EPH-A3 residual activity (%) at 1 μM
HCT116 cells = test: TNF-sensitised cell viability assay (CellTiter-Glo); conditions: Homo sapiens, HCT-116, read-out: HCT116 IC50 (at 10 ng/ml rHuTNF)
[4] = tested on: MC38 murine tumour cell line; test: as above; conditions: Mus musculus, MC-38, read-out: MC38 IC50 (at 100 ng/mL rMuTNF)
EPH-A7 = EPH-A7 (Homo sapiens (Human), UniProt Q15375); test: biochemical; conditions: read-out: EPH-A7 residual activity (%) at 1 μM
EPH-B1 = EPH-B1 (Homo sapiens (Human), UniProt P54762); test: biochemical; conditions: read-out: EPH-B1 residual activity (%) at 1 μM
RAF1 = assay type: biochemical
KASUMI-1 cell line = test: Growth inhibition (GI50) of AML cell lines; assay type: cell-based; conditions: Homo sapiens, Kasumi 1, read-out: GI50 against KASUMI-1 cell line
[5] = humans; cited from earlier work
MV4-11 cell line = test: Growth inhibition (GI50) of AML cell lines; assay type: cell-based; conditions: Homo sapiens, MV4-11, read-out: GI50 against MV4-11 cell line
BRAF = BRAF (Homo sapiens (Human), UniProt P15056)
RET = RET (Homo sapiens (Human), UniProt P07949)
KIT = KIT (Homo sapiens (Human), UniProt P10721); conditions: read-out: KIT IC50
FLT3 = FLT3 (Homo sapiens (Human), UniProt P36888); conditions: read-out: FLT3 IC50
SYK = SYK (Homo sapiens (Human), UniProt P43405); conditions: read-out: SYK IC50
NEK11 = NEK11 (Homo sapiens (Human), UniProt Q8NG66)
SIK2 = SIK2 (Homo sapiens (Human), UniProt Q9H0K1); conditions: read-out: SIK2 IC50
SIK1 = SIK1 (Homo sapiens (Human), UniProt P57059); conditions: read-out: SIK1 IC50
ABL1 wt = ABL1 wt (Homo sapiens (Human), UniProt P00519); assay type: biochemical
ABL1 Q252H = ABL1 Q252H (Homo sapiens, UniProt P00519, Q252H); conditions: read-out: ABL1 Q252H IC50
ABL1 M351T = ABL1 M351T (Homo sapiens, UniProt P00519, M351T); conditions: read-out: ABL1 M351T IC50
ABL1 H396P = ABL1 H396P (Homo sapiens, UniProt P00519, H396P); conditions: read-out: ABL1 H396P IC50
ABL1 Y253F = ABL1 Y253F (Homo sapiens, UniProt P00519, Y253F); conditions: read-out: ABL1 Y253F IC50
ABL1 F317I = ABL1 F317I (Homo sapiens, UniProt P00519, F317I); conditions: read-out: ABL1 F317I IC50
ABL1 E255K = ABL1 E255K (Homo sapiens, UniProt P00519, E255K); conditions: read-out: ABL1 E255K IC50
ABL1 G250E = ABL1 G250E (Homo sapiens, UniProt P00519, G250E); conditions: read-out: ABL1 G250E IC50
ABL1 T315I = ABL1 T315I (Homo sapiens, UniProt P00519, T315I); conditions: read-out: ABL1 T315I IC50
SRC (GST-HIS-tag) = SRC (GST-HIS-tag) (Homo sapiens (Human), UniProt P12931); test: biochemical
in vitro [6] = conditions: human, microsomes
in vitro [7] = conditions: mouse, microsomes

Compound: Cc1nc(Nc2ncc(C(=O)Nc3c(C)cccc3Cl)s2)cc(N2CCN(CCO)CC2)n1 [Compound A8, N-(2-chloro-6-methylphenyl)-2-((6-(4-(2-hydroxyethyl)piperazin-1-yl)-2-methylpyrimidin-4-yl)amino)thiazole-5-carboxamide, reference compound]
- severe central nervous system (CNS) haemorrhages (including fatalities) ([1]; all clinical studies): 1 % of patients
- QT prolongation ([1]; human, in vivo): up to 1 % of CML patients
- cardiac adverse reactions ([1]; human, in vivo): 5.8 % of 258 patients
- other cases of severe haemorrhage ([1]; human, in vivo): 2 % of patients
- severe fluid retention ([1]; human, in vivo): up to 10 % of patients
- Human plasma-protein binding, Percentage unbound (%) ([2]; Table 5A): 2%
- Human plasma-protein binding, Percentage unbound (%) ([2]; Table 5.1A): 2%
- NIK residual activity (%) at 1 μM (NIK): 82%
- average TGI [3]: 56%
- remaining activity at 1 µM (EPH-A3): 0%
- IC50 (HCT116 cells): < 100 nM
- IC50 [4]: < 100 nM
- remaining activity at 1 µM (EPH-A7): 88%
- remaining activity at 1 µM (EPH-B1): 0%
- RAF1 residual activity (%) at 1 μM (RAF1): 14%
- GI50 (KASUMI-1 cell line): 2.8 nM
- overall mean terminal half-life [5]: 3 to 5 h
- GI50 (MV4-11 cell line): 325 nM

Compound: Cc1nc(Nc2ncc(C(=O)Nc3c(Cl)ccnc3C)s2)cc(N2CCN(CCO)CC2)n1 [Compound B3, N-(4-chloro-2-methylpyridin-3-yl)-2-((6-(4-(2-hydroxyethyl)piperazin-1-yl)-2-methylpyrimidin-4-yl)amino)thiazole-5-carboxamide]
- BRAF residual activity (%) at 1 μM (BRAF): 46%
- RET residual activity (%) at 1 μM (RET): 98%
- IC50 (KIT): 40.4 nM
- IC50 (FLT3): 6900 nM
- IC50 (FLT3; as stated in text): 6900 nM
- IC50 (SYK): 26000 nM
- IC50 (SYK; as stated in text): 26000 nM
- NEK11 residual activity (%) at 1 μM (NEK11): 89%

Compound: Cc1nc(Nc2ncc(C(=O)Nc3c(C)ccnc3C)s2)cc(N2CCN(CCO)CC2)n1 [Compound C1, N-(2,4-dimethylpyridin-3-yl)-2-((6-(4-(2-hydroxyethyl)piperazin-1-yl)-2-methylpyrimidin-4-yl)amino)thiazole-5-carboxamide]
- IC50 (SIK2): 641 nM
- IC50 (SIK1): 132 nM
- IC50 (ABL1 wt): 13 nM

Compound: Cc1nc(Nc2ncc(C(=O)Nc3c(Br)ccnc3C)s2)cc(N2CCN(CCO)CC2)n1 [Compound C3, N-(4-bromo-2-methylpyridin-3-yl)-2-((6-(4-(2-hydroxyethyl)piperazin-1-yl)-2-methylpyrimidin-4-yl)amino)thiazole-5-carboxamide]
- IC50 (ABL1 Q252H): 29.7 nM
- IC50 (ABL1 M351T): 37 nM
- IC50 (SIK2): 1540 nM
- IC50 (ABL1 H396P): 32.5 nM
- IC50 (ABL1 Y253F): 16.1 nM
- IC50 (ABL1 F317I): 823 nM
- IC50 (ABL1 E255K): 111 nM
- IC50 (SIK1): 571 nM
- IC50 (ABL1 wt): 39.7 nM
- IC50 (ABL1 G250E): 101 nM
- IC50 (ABL1 T315I): 43800 nM
- IC50 (SRC (GST-HIS-tag)): < 2 nM and 1.59 nM

Compound: Cc1nc(Nc2ncc(C(=O)Nc3c(C)cncc3Cl)s2)cc(N2CCN(CCO)CC2)n1 [Compound C4, N-(3-chloro-5-methylpyridin-4-yl)-2-((6-(4-(2-hydroxyethyl)piperazin-1-yl)-2-methylpyrimidin-4-yl)amino)thiazole-5-carboxamide]
- IC50 (ABL1 Q252H): 15.2 nM
- IC50 (ABL1 M351T): 19.4 nM
- IC50 (SIK2): 130 nM
- IC50 (ABL1 H396P): 13.2 nM
- IC50 (ABL1 Y253F): 11 nM
- IC50 (ABL1 F317I): 189 nM
- IC50 (ABL1 E255K): 51.6 nM
- IC50 (SIK1): 32.7 nM
- IC50 (ABL1 wt): 17.7 nM
- IC50 (ABL1 G250E): 45.6 nM
- IC50 (ABL1 T315I): 23400 nM

Compound: Cc1nc(Nc2ncc(C(=O)Nc3c(C)cncc3C)s2)cc(N2CCN(CCO)CC2)n1 [Compound C5, N-(3,5-dimethylpyridin-4-yl)-2-((6-(4-(2-hydroxyethyl)piperazin-1-yl)-2-methylpyrimidin-4-yl)amino)thiazole-5-carboxamide]
- IC50 (SIK2): 119 nM
- IC50 (SIK1): 30.6 nM
- IC50 (ABL1 wt): 28.2 nM

Compound: Cc1nc(Nc2ncc(C(=O)Nc3cccnc3C)s2)cc(N2CCN(CCO)CC2)n1 [Compound C6, 2-((6-(4-(2-hydroxyethyl)piperazin-1-yl)-2-methylpyrimidin-4-yl)amino)-N-(2-methylpyridin-3-yl)thiazole-5-carboxamide]
- IC50 (SIK2): 385 nM
- IC50 (SIK1): 336 nM
- IC50 (ABL1 wt): 14.7 nM

Compound: Cc1nc(Nc2ncc(C(=O)Nc3c(C)csc3Cl)s2)cc(N2CCN(CCO)CC2)n1 [Compound C7, N-(2-chloro-4-methylthiophen-3-yl)-2-((6-(4-(2-hydroxyethyl)piperazin-1-yl)-2-methylpyrimidin-4-yl)amino)thiazole-5-carboxamide]
- IC50 (SIK1): 13.4 nM

Compound: Cc1nc(Nc2ncc(C(=O)Nc3c(C)nn(C)c3C)s2)cc(N2CCN(CCO)CC2)n1 [Compound C8, 2-((6-(4-(2-hydroxyethyl)piperazin-1-yl)-2-methylpyrimidin-4-yl)amino)-N-(1,3,5-trimethyl-1H-pyrazol-4-yl)thiazole-5-carboxamide]
- IC50 (SIK2): 4440 nM
- IC50 (SIK1): 2800 nM
- IC50 (SRC (GST-HIS-tag)): 22.8 nM

Compound: Cc1nc(NCCO)cc(Nc2ncc(C(=O)Nc3c(Cl)ccnc3C)s2)n1 [Compound C11, N-(4-chloro-2-methylpyridin-3-yl)-2-((6-((2-hydroxyethyl)amino)-2-methylpyrimidin-4-yl)amino)thiazole-5-carboxamide]
- IC50 (SIK2): 470 nM
- IC50 (SIK1): 302 nM
- IC50 (ABL1 wt): 4.43 nM

Compound: Cc1nc(Nc2ncc(C(=O)N[C@H]3CN4CCC3CC4)s2)cc(N2CCN(CCO)CC2)n1 [Compound C12, (R)-2-((6-(4-(2-hydroxyethyl)piperazin-1-yl)-2-methylpyrimidin-4-yl)amino)-N-(quinuclidine-3-yl)thiazole-5-carboxamide]
- half-life (in vitro [6]): > 1.67 h
- IC50 (SIK1): 1710 nM
- IC50 (ABL1 wt): 391 nM
- half-life (in vitro [7]): > 1.67 h
- IC50 (SRC (GST-HIS-tag)): 73.7 nM
